Results from patent US20030114375A1, “Method for treating cystic fibrosis” (The Government of the USA, Dept of Health and Human …, priority 1994, published 2003).

System: CFPAC cells
Assay: [36Cl]- efflux from CFPAC cells

## Cn1c(=O)c2[nH]c(C3CCCCC3)nc2n(C)c1=O
  thresh (nM): minimum concentration required to detect an effect upon chloride efflux: 0.1 nM
